Our source for the inhibition values is PubChem BioAssay AID1671202 (University of Kansas High Throughput Screening Laboratory, 2021).

Protein sequences, listed by entry. Tags and fused reporters are not part of them.
UniProt P42858, whole entry: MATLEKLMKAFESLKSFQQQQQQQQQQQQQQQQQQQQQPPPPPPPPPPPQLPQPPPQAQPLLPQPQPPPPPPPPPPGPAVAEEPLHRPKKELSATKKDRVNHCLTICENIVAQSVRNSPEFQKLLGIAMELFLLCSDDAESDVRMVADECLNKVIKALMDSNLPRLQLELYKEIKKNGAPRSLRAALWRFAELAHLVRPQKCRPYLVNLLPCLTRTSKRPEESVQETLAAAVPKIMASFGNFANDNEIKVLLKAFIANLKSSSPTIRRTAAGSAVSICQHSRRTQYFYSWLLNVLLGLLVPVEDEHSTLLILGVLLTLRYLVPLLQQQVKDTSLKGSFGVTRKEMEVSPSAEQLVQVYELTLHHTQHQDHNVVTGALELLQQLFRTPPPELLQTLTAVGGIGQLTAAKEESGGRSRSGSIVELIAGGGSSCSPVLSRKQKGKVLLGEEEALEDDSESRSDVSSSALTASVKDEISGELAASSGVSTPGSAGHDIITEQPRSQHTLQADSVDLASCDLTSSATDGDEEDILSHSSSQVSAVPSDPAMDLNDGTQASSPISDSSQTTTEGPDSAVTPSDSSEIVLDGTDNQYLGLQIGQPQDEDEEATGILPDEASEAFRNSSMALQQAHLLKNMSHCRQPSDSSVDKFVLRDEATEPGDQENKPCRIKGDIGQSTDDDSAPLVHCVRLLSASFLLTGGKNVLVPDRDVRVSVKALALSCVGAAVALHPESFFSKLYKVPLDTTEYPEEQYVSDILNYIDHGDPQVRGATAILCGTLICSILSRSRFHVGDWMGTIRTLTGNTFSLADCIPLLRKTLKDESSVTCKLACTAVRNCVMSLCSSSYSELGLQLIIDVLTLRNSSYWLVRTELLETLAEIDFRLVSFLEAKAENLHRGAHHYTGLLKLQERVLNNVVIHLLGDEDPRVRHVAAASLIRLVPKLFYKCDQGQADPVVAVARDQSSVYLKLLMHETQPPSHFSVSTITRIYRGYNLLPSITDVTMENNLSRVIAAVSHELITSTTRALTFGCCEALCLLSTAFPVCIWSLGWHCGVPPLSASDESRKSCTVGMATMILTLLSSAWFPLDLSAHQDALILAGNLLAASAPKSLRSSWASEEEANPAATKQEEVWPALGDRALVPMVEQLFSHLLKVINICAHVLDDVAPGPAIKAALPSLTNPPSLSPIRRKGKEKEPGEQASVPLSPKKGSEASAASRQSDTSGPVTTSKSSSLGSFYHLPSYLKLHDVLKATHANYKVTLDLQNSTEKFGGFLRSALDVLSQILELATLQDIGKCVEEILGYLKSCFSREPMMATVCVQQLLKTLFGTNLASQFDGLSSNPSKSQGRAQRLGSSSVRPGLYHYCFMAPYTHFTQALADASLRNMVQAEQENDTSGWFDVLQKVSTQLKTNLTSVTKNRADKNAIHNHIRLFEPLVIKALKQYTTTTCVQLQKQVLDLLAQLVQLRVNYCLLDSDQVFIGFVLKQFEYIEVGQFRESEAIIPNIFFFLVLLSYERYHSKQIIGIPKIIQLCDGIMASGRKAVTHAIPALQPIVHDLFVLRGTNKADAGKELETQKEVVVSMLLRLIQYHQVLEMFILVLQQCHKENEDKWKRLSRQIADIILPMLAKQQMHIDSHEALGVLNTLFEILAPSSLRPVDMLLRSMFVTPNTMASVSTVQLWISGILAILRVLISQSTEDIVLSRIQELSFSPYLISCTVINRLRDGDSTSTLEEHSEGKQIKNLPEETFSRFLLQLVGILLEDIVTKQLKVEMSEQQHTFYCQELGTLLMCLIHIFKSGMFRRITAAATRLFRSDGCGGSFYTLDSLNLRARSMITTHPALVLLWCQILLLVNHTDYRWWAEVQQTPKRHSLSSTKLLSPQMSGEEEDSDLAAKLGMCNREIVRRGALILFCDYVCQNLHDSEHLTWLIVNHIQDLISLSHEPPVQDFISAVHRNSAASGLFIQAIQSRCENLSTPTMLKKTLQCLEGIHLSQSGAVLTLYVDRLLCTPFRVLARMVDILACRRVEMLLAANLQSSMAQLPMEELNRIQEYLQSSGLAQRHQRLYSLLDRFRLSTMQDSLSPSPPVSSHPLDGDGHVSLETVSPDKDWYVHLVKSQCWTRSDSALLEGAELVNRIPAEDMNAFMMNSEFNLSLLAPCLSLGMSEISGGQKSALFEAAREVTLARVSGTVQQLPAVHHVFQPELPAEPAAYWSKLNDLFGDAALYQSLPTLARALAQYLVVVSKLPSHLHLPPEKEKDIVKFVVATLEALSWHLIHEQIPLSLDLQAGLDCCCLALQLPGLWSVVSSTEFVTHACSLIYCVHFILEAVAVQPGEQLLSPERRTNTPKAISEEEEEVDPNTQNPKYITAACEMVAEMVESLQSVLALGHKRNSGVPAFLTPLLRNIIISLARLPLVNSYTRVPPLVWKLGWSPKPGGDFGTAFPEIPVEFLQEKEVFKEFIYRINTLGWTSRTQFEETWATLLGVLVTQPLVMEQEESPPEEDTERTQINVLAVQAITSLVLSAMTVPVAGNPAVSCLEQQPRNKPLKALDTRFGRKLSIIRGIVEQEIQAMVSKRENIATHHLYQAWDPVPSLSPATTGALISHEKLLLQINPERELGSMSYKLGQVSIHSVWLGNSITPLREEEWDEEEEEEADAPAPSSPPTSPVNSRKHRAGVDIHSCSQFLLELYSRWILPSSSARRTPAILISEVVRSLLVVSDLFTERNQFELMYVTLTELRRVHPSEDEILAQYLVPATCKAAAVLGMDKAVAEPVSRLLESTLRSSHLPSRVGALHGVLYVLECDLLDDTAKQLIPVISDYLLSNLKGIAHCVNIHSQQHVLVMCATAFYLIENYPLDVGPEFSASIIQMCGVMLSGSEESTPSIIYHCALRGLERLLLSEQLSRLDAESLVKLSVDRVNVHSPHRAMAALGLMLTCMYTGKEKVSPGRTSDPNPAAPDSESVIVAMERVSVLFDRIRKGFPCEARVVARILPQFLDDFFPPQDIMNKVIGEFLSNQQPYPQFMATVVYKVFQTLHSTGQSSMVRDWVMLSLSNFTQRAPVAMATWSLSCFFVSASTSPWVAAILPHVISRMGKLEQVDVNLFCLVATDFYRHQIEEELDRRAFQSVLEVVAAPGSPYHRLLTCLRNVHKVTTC

The list shows a part of the results, in another mix than the full data. The source made the active and inactive calls. Cut-off read from the data, not from the text of the source: active = inhibition above about 50%; inactive = the rest.

The experiment concerns the target Huntingtin (Homo sapiens) (UniProt P42858). As to the kind of experiment: mutant huntingtin-calmodulin interaction inhibitors – biochemical, AlphaScreen, primary screen (AID 1671202).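 Note: 0% = both proteins with DMSO and 100% = one protein alone.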 The settings on record: AlphaScreen His-mHTT/GST-CaM binding, luminescence; at 15 µM; active compounds read high.
For orientation: inhibition means the drop in the measured response relative to a control, in per cent. Regarding `CCOC(=O)N1CCC(Nc2ccc(C)cc2)CC1`, the inhibition was inactive: 4.2%.
Regarding `CN1CCC(Nc2ccc(F)cc2)CC1`, the inhibition is inactive: -3.9%.
In the case of `NC(=O)C1(Nc2ccccc2)CCN(Cc2ccccc2)CC1`, the inhibition was inactive: -3%.
On to `CCCN1CCC(Nc2cc(OC)cc(OC)c2)CC1`, for which the inhibition was inactive: 2.2%.
The same measure for `CCCN1CCC(Nc2ccccc2F)CC1`: inactive: -10.4%; for `CC(=O)N1CCN(C/C=C/c2ccccc2[N+](=O)[O-])CC1`: inactive: 1.1%; for `CCN1CCC(Nc2ccc(F)cc2)CC1`: inactive: -3.3%.
The figure for `CCN1CCC(Nc2cccc(F)c2)CC1` is inactive: -4.6%.
Take `Fc1cccc(NC2CCN(CCc3ccccc3)CC2)c1`: the inhibition is inactive: 7.4%.
For `Clc1ccc(NC2CCN(Cc3ccccc3)CC2)cc1`, the inhibition was inactive: 14.9%.
Turning to `Fc1ccccc1NC1CCN(Cc2ccccc2)CC1`, the inhibition was inactive: -8.8%.
As to `CN1CCC(Nc2ccc(Cl)cc2)CC1`, the inhibition was inactive: 2.5%.
The same measure for `CN1CCC(Nc2ccc(F)c(Cl)c2)CC1`: inactive: 8.3%; for `N#CC1(Nc2ccccc2)CCN(Cc2ccccc2)CC1`: inactive: 2%.
As to `N#CC(C#N)=Cc1cc2c(cc1[N+](=O)[O-])OCO2`, the inhibition was inactive: 28.5%.
For the compound `CCCN1CCC(Nc2ccc(F)cc2)CC1`, the inhibition is inactive: 0.4%.
Consider `COc1ccc(NC2CCN(CCc3ccccc3)CC2)c(OC)c1`, for which the inhibition was inactive: 17.4%.
The same measure for `O=S1(=O)CC(Cl)C(SC2CS(=O)(=O)CC2Cl)C1` (centres undefined): inactive: -3%; for `CCN1CCC(Nc2ccc(Cl)cc2)CC1`: inactive: -1.4%.
